Reference: PMC5333931 (ACS chemical neuroscience, 2016)

Target: T1, GIRK4* channel (Homo sapiens, UniProt P48544, S143T)
T1 sequence (P48544 1-419 S143T): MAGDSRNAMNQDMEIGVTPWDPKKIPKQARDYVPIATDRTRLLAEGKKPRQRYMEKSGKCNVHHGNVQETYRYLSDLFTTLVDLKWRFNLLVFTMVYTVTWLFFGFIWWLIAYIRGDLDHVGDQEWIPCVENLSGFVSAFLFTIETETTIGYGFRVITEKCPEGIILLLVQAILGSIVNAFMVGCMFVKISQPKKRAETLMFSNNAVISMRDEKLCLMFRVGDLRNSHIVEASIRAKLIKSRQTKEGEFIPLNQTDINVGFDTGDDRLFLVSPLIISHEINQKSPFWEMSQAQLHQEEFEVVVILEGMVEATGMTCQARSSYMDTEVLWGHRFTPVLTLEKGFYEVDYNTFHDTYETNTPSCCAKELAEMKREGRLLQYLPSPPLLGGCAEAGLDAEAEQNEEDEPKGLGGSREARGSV
Assay: TEVC, oocytes expressing GIRK4* alone versus GIRK4* and 5-HT2A receptors
Assay type: cell-based
Settings: 50 µM or higher; suggests direct inhibition of GIRK4* channel

Cc1nc2n(c(=O)c1CCN1CCC(c3noc4cc(F)ccc34)CC1)CCCC2 [compound 1, risperidone, reference compound]
current inhibition in oocytes expressing GIRK4* alone versus GIRK4* and 5-HT2A receptors: no significant differences
